Consider 13 molecules from patent US9718790B2, “Triazine derivative and pharmaceutical composition having an analgesic activity comprising the same” (SHIONOGI & CO., LTD., priority 2010, dated 2017).

Chains of the proteins cited; added tags and fusions are not shown.
UniProt P56373, whole entry: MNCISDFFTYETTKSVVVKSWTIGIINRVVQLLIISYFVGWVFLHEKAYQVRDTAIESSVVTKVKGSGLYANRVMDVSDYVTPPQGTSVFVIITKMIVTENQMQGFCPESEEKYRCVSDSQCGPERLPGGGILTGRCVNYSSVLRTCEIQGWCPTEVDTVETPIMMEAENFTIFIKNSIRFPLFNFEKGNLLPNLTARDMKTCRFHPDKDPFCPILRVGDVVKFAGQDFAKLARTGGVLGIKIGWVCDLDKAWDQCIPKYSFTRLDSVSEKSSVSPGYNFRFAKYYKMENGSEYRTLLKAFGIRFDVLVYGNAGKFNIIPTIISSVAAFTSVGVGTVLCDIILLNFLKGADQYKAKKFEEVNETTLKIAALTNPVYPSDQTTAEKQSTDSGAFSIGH

This assay concerns the target human P2X3 receptor (Homo sapiens (Human), UniProt P56373). Kind of assay: Evaluation of human P2X3 receptor inhibitory activity (Fluo-3 calcium fluorescence, FDSS 3000, ATP stimulation).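 Also: stimulus was 50 nM ATP with fluorescence followed for 3 min, and the response per well was peak post-ATP fluorescence divided by the reading at measurement start.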 As to conditions: read-out: P2X3 IC50. It is filed as cell-based.
[1] abbreviates: C6BU-1 cells stably expressing human P2X3 receptor.
Where [2] appears, read: C6BU-1 cells stably expressing human P2X3 receptor, Fluo-3 fluorescence, FDSS 3000.

The structures appear in SMILES notation. Read-outs that look alike come from different tables or passages of the source.

The term IC50 denotes the concentration at which inhibition is half-maximal. `Cc1ccc(Oc2ccc(N=c3[nH]c(=O)n(C[C@H](C)C(=O)O)c(=O)n3Cc3ccc(Cl)cc3)cc2)cn1`: under setting [1], the IC50 worked out at 17 nM.
`CCOC(=O)C1(Cn2c(=O)[nH]c(=Nc3ccc(OC(C)C)c(Cl)c3)n(Cc3ccc(C)cc3)c2=O)CC1`: the IC50 worked out at 10 nM.
Take `CCOC(=O)C1(Cn2c(=O)[nH]c(=Nc3ccc(OCC)c(Cl)c3)n(Cc3ccc(C)cc3)c2=O)CC1`: the IC50 under setting [2] was determined as 4 nM.
Still for that read-out and setting: for `COC(=O)[C@H](C)[C@H](C)n1c(=O)[nH]/c(=N\c2ccc(OCC3CC3)cc2)n(Cc2ccc(Cl)cc2)c1=O` the value was 18 nM.
The same measure, in the same setting: for `Cc1ccc(Cn2c(=Nc3ccc(OC(C)C)c(Cl)c3)[nH]c(=O)n(CC3(C(=O)O)CC3)c2=O)cc1` the value was 11 nM; for `CCC[C@@H](C)Oc1ccc(/N=c2\[nH]c(=O)n(CCC(=O)O)c(=O)n2Cc2ccc(C)cc2)cc1`, 541 nM; for `CCOc1ccc(N=c2[nH]c(=O)n(CC3(C(=O)O)CC3)c(=O)n2Cc2ccc(C)cc2)cc1Cl`, 22 nM.
Still for that read-out and setting: for `COC(=O)[C@@H](C)Cn1c(=O)[nH]/c(=N\c2ccc(OC(C)C)c(Br)c2)n(Cc2ccc(C)cc2)c1=O` the value was 7 nM.
For the molecule `CCCOc1ccc(N=c2[nH]c(=O)n(CCC(=O)OCC)c(=O)n2Cc2ccc(C)cc2)cc1Cl`, the IC50 (human P2X3 receptor, Test Example 1) is 13 nM.
As to `CC(C)Oc1ccc(N=c2[nH]c(=O)n(CCc3nn[nH]n3)c(=O)n2Cc2ccc(Cl)cc2)cc1F`, the IC50 came to 10 nM.
For `CCCc1nc2ccc(N=c3[nH]c(=O)n(C[C@H](C)C(=O)O)c(=O)n3Cc3ccc(Cl)cc3)cc2o1`, under setting [1], the IC50 stood at 50 nM.
Take `O=C(O)CCn1c(=O)[nH]c(=Nc2ccc(OCC3CC3)cc2)n(Cc2ccc(Cl)cc2)c1=O`: the IC50 under setting [2] was 65 nM.
The same measure, in the same setting: for `CCCOc1ccc(/N=c2\[nH]c(=O)n([C@@H](C)[C@@H](C)C(=O)OC)c(=O)n2Cc2ccc(Cl)cc2)cc1` the value was 23 nM.
